# Binding of CDR-mutated scFvs to a peptide of the spike HR2 region

Source: Li et al. 2023 (doi:10.1038/s41467-023-39022-2), MIT Lincoln Laboratory and A-Alpha Bio; data file from the FLAb repository.

Antigen: PDVDLGDISGINAS, a 14-residue peptide of the SARS-CoV-2 spike HR2 region.

The variants keep the light chain, the linker and the frameworks of Ab-14 (scFv order VH, a 15-residue (Gly4Ser)3 linker, VL).
VH: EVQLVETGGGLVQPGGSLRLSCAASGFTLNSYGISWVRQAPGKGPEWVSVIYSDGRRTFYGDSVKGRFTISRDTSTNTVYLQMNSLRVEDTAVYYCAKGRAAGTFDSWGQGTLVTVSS
VL: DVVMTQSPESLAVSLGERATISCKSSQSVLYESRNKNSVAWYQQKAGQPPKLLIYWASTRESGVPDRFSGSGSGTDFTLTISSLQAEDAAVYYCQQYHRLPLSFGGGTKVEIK

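Designed CDR sequences, proposed from the first random library and measured here. Several design methods are mixed in this list. The scFvs were displayed on barcoded MATa yeast, the peptide on MATalpha yeast. Binding brings cells together so that they mate, and sequencing counts the barcode pairs among the diploids. A regression on co-assayed BCL2-family reference pairs converts the normalised counts of each replicate to an apparent Kd. There are six technical replicates.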

Each variant is given by its three heavy chain CDRs, as the data file delimits them; those of the parent are GFTLNSYGIS, VIYSDGRRTFYGDSVK, GRAAGTFDS.
Values are log10 of the apparent Kd in nM; lower means stronger binding.
Averages over replicates are reported, and they cover detected replicates only.
Where no diploid with the target was found in any replicate, the entry reads "nd": below detection, most likely a poor binder, though not proof of it.

| # | CDR-H1 | CDR-H2 | CDR-H3 | mean, log10 nM | replicates with signal | control signals |
|---|---|---|---|---|---|---|
| 1 | GFSLNSYGIS | VIYSDGRRTFYQDSVK | GQTAGTFDS | 2.28 | 2/6 | 0/18 |
| 2 | GFTLNQYGIS | VILSDGMRTFYTDSVK | GRAAGFFDS | nd | 0/6 | 0/18 |
| 3 | GFDLNEYGIS | VIYADGMRTAYSDSVK | GEVAGTFDL | -0.37 | 6/6 | 1/18 |
| 4 | GFTLNSYGIS | VIYSDKRRTFYSDSVK | GRAGGTFDS | nd | 0/6 | 1/18 |
| 5 | GFPLNDYGIS | VIYSDGRRTWYGDSVK | GRAAGTFDS | nd | 0/6 | 1/18 |
| 6 | GFTSNDYGIS | VIYSDGRQTFQGDSVK | GRAALTFIS | nd | 0/6 | 0/18 |
| 7 | GFSLNEYGIS | VIYADGQRTSYQQSVK | DVNDDINQV | nd | 0/6 | 0/18 |
| 8 | GFDLNSYGIS | VIYSDGRRTFYTDNVK | GKTAGTFDS | 0.01 | 6/6 | 0/18 |
| 9 | GFTLNSYGIS | VIYSDGRRTFYDDSVK | GQEAGTFDR | 2.06 | 5/6 | 0/18 |
| 10 | GFTLNSYGIS | VIYSDGRRTFYGDEVK | GDAEGTFDS | nd | 0/6 | 0/18 |
| 11 | GFDLNEYGIS | VIYADGRRTFYADSVK | GHVAGTFVL | -0.67 | 6/6 | 0/18 |
| 12 | GFTLNDYGIS | VIYSDGRRTVYIDSVK | GRAAGTFDS | 1.50 | 5/6 | 0/18 |
| 13 | GFSLNSYGIS | VIYSDGRRTAYGDSVK | GRLAGTFDS | 1.73 | 5/6 | 1/18 |
| 14 | GFDLNSYGIS | VIYSDGRRTFYVDSVK | GRIAGTFDS | 0.59 | 6/6 | 0/18 |
| 15 | GFNLNEYGIS | VIYADGNRNAYANSFK | GLHANFFII | nd | 0/6 | 0/18 |
| 16 | GFDLNEYGIS | VIYADGRRTAYSDSVK | GEAAGFFDT | 2.63 | 1/6 | 0/18 |
| 17 | GFSLNSYGIS | VIYSDGRRTFYKDSVK | GQAAGTFDL | 1.12 | 6/6 | 1/18 |
| 18 | GFNLNSYGIS | VIYSDGRRTFYADSVK | GWAAGTFDS | 1.78 | 6/6 | 0/18 |
| 19 | GFDLNSYGIS | VIYSDGRRTFYGDSVK | GRTAGTFKS | 2.43 | 4/6 | 0/18 |
| 20 | GFTLNLYGIS | VIYSDGRRTFYQDSVK | GRAAGTFDS | 1.31 | 6/6 | 1/18 |
| 21 | GFDLNEYGIS | VIYADGKRTAYSDSVK | GNVAGTFDM | -0.68 | 6/6 | 0/18 |
| 22 | GFTLNLYGIS | VIYSDGRRTFYGDSVK | GKAAGTFDS | nd | 0/6 | 0/18 |
| 23 | GFDLNSYGIS | VIYSDGRRTAYGDRVK | GRQAGTFDS | -0.06 | 6/6 | 0/18 |
| 24 | GFTLNSYGIS | VIYSDGKRTFYGDSVK | GRVAGTFDV | 1.41 | 5/6 | 0/18 |
| 25 | GFDLDQYGIS | VIYADGRRTAYANDVK | GKYAGSMLD | nd | 0/6 | 0/18 |
| 26 | GFDLNEYGIS | VIYADGRRTFYADSVK | GENAGTFLS | 0.17 | 6/6 | 2/18 |
| 27 | GFTLNEYGIS | VIYSDGRRTFYIDSVK | GRFAGTFDS | 0.28 | 4/6 | 0/18 |
| 28 | GYDLNEYGIS | VIYADGRRAAYIDDVK | GHVSDHFAV | 0.23 | 6/6 | 0/18 |
| 29 | GFDLNEYGIS | VIYADGMRTFYTDSVK | GQLAGTFDF | -0.32 | 6/6 | 0/18 |
| 30 | GFDLDEYGIS | VIYADGMRTAYSDSVK | GTVAGTFDV | -0.78 | 6/6 | 0/18 |
| 31 | GFNLDEYGIS | VIYADGQRTYYTQKVK | GGIQDANMG | nd | 0/6 | 1/18 |
| 32 | GFVLNEYGIS | VIYADGRRTFYGDSVK | GQAAGTFDS | -0.41 | 6/6 | 0/18 |

Second part, the sequence after the result:

| # | mean, log10 nM | replicates with signal | control signals | CDR-H1 | CDR-H2 | CDR-H3 |
|---|---|---|---|---|---|---|
| 33 | nd | 0/6 | 0/18 | GFTLNEYGIS | VIYSDGRRTFYGDSVK | GRQAGTFIS |
| 34 | 1.23 | 6/6 | 0/18 | GFDLNEYGIS | VIYADGRRTFYTDSVK | GNAAGTFNV |
| 35 | nd | 0/6 | 0/18 | GFDLMEYGIS | VIYADGQRQVYQDNVK | GGDAVLNIV |
| 36 | 1.00 | 6/6 | 1/18 | HFSLNEYGIS | VIYSDGRRTFYGDSVK | GRQAGTFDS |
| 37 | 0.27 | 6/6 | 0/18 | GFTLNSYGIS | VIYSDGRRTFYGDDVK | GQEAGTFDT |
| 38 | -0.53 | 6/6 | 0/18 | GFDLNEYGIS | VIYADGKRTAYVDSVK | GQVAGTFDV |
| 39 | -0.23 | 6/6 | 0/18 | GFDLNEYGIS | VIYADGMRTAYVDDVK | GNTAGTFDV |
| 40 | nd | 0/6 | 0/18 | GFTLCSYGIS | VIYSDGRRTAYGDSVK | GRAAGTPDS |
| 41 | nd | 0/6 | 0/18 | GFDINEYGIS | VIYADGMRKAYVQNVK | GENSRSVQI |
| 42 | 0.55 | 1/6 | 0/18 | GFTLNSYGIS | VIYSDGRRTFYSDSVK | GRVAGTFFS |
| 43 | 2.29 | 1/6 | 2/18 | GFTLNSYGIS | VIYSDGRRTFYSDSVK | GRAAGYFDS |
| 44 | 0.21 | 6/6 | 0/18 | GFELNSYGIS | VIYSDGRRTFYVDSVK | GQTAGTFDA |
| 45 | -0.38 | 6/6 | 0/18 | GFDLNEYGIS | VIYADGVRTFYADSVK | GKNAGTFDV |
| 46 | -1.11 | 6/6 | 0/18 | GFDLDEYGIS | VIYADGMRTAYSDSVK | GQVAGTFDV |
| 47 | -0.19 | 5/6 | 0/18 | GFQIEEYGIS | VIYADGDRKNYDAKVK | GQIAGTLDM |
| 48 | 1.64 | 5/6 | 0/18 | GFDLNSYGIS | VIYSDGWRTFYIDSVK | GRTAGTFDS |
| 49 | nd | 0/6 | 0/18 | GFTLNSYGIS | VIYSDGKRVFYGDSVK | GRAAGTFDS |
| 50 | nd | 0/6 | 0/18 | GFTLNDYGIS | VIYSDGRRTFYDDSVK | GRAAGTFIS |
| 51 | 0.74 | 6/6 | 0/18 | GFDLNEYGIS | VIYADGRRTFYADSVK | GEQAGTFDI |
| 52 | -0.32 | 6/6 | 0/18 | GFDLNEYGIS | VIYADGRRSFYADSVK | GQIAGTFDS |
| 53 | 1.73 | 5/6 | 0/18 | RFTLNSYGIS | VIYSDGRRTFYGDSVK | GRAAGTFRS |
| 54 | -0.30 | 6/6 | 0/18 | GFDLNEYGIS | VIYADGMRTAYSDDVK | GETAGTFDI |
| 55 | 1.64 | 2/6 | 0/18 | GFTLDSYGIS | VIYSDGKRTFYGDSVK | GRAAGTFDR |
| 56 | 2.10 | 5/6 | 0/18 | GFDLEEMGIS | VIYADGARTVYTNSVK | GSFGGQMNV |
| 57 | 0.76 | 6/6 | 0/18 | GFELNSYGIS | VIYSDGRRTFYSDSVK | GEAAGTFDT |
| 58 | 0.66 | 6/6 | 0/18 | GFGLNSYGIS | VIYSDGRRTFYTDSVK | GNAAGTFDS |
| 59 | -0.26 | 6/6 | 0/18 | GFDLNEYGIS | VIYADGQRTAYADSVK | GETAGTFDV |
| 60 | 0.02 | 4/6 | 0/18 | GFELNSYGIS | VIYADGRRTFYGDSVK | GKAAGTFDA |
| 61 | -0.13 | 12/12 | 1/36 | GFTLNEYGIS | VIYSDGRRTAYGDSVK | GRAAGTFDS |
| 62 | nd | 0/6 | 0/18 | GENLEEYGIS | VIYADGIREQYTDQVK | GEQGGYFVT |
| 63 | 0.57 | 6/6 | 1/18 | GFELNRYGIS | VIYSDGRRTFYGDSVK | GQTAGTFDS |
| 64 | -0.41 | 6/6 | 0/18 | GFDLNEYGIS | VIYADGRRTAYSDNVK | GNVAGTFDV |
| 65 | nd | 0/6 | 1/18 | GFKLDEYGIS | VIYADGCRTAYVDSVK | GKTTFSKFV |

Excerpt, the first 10 entries:

CDR-H1,CDR-H2,CDR-H3,"mean, log10 nM",replicates with signal,control signals
GFSLNSYGIS,VIYSDGRRTFYQDSVK,GQTAGTFDS,2.28,2/6,0/18
GFTLNQYGIS,VILSDGMRTFYTDSVK,GRAAGFFDS,nd,0/6,0/18
GFDLNEYGIS,VIYADGMRTAYSDSVK,GEVAGTFDL,-0.37,6/6,1/18
GFTLNSYGIS,VIYSDKRRTFYSDSVK,GRAGGTFDS,nd,0/6,1/18
GFPLNDYGIS,VIYSDGRRTWYGDSVK,GRAAGTFDS,nd,0/6,1/18
GFTSNDYGIS,VIYSDGRQTFQGDSVK,GRAALTFIS,nd,0/6,0/18
GFSLNEYGIS,VIYADGQRTSYQQSVK,DVNDDINQV,nd,0/6,0/18
GFDLNSYGIS,VIYSDGRRTFYTDNVK,GKTAGTFDS,0.01,6/6,0/18
GFTLNSYGIS,VIYSDGRRTFYDDSVK,GQEAGTFDR,2.06,5/6,0/18
GFTLNSYGIS,VIYSDGRRTFYGDEVK,GDAEGTFDS,nd,0/6,0/18

A sequence that the file lists under several names has all its replicates pooled.
Empty control strains, which show no peptide, gave a signal in 1% of pairings with all heavy chain designs; the median was 2.08 and 95% of these signals were weaker than 0.84. No background was subtracted. Also given: how often the same scFv was detected with the empty control strains.
A sequence measured in both rounds can read differently, since the two assays cover different ranges.
The authors' rule: three or more of the six replicates give a measured affinity, fewer mean a poor binder.